The source of these data is patent US8377955B2, “Branched 3- and 6-substituted quinolines as CGRP receptors antagonists” (Merck, Sharp & Dohme, Corp., priority 2008, dated 2013).

Amino acid sequences for entries named in this document (tags omitted). Residues count along the entry.
UniProt O60894, 27-148 limits assumed: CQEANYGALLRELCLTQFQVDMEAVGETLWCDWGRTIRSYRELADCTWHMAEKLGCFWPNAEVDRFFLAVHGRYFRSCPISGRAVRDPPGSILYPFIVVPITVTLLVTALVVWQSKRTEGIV
UniProt Q16602, 23-461 limits assumed: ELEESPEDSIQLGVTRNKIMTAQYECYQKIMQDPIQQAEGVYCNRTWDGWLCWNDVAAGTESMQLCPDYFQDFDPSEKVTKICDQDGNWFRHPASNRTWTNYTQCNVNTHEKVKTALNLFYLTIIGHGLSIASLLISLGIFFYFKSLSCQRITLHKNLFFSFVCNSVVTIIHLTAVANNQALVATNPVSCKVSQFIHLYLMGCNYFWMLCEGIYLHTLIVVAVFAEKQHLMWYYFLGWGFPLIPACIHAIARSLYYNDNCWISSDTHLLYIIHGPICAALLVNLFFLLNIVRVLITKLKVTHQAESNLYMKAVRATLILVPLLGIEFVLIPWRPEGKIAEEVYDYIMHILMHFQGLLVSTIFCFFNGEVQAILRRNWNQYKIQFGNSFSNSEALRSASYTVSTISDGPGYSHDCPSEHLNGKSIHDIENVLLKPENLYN

Molecules are shown by their SMILES.

The experiment addresses Human CGRP receptor (Homo sapiens, UniProt O60894+Q16602). The experiment can be described thus: Human CGRP receptor binding (125I-CGRP displacement). The following applies: table of Examples 3-31. How it is done:
NATIVE RECEPTOR BINDING ASSAY: The binding of ^125I-CGRP to receptors in SK-N-MC cell membranes was carried out essentially as described (Edvinsson et al. (2001) Eur. J. Pharmacol. 415, 39-44). Briefly, membranes (25 μg) were incubated in 1 mL of binding buffer [10 mM HEPES, pH 7.4, 5 mM MgCl2 and 0.2% bovine serum albumin (BSA)] containing 10 pM ^125I-CGRP and antagonist. After incubation at room temperature for 3 h, the assay was terminated by filtration through GFB glass fibre filter plates (PerkinElmer) that had been blocked with 0.5% polyethyleneimine for 3 h. The filters were washed three times with ice-cold assay buffer (10 mM HEPES, pH 7.4 and 5 mM MgCl2), then the plates were air dried. Scintillation fluid (50 μL) was added and the radioactivity was counted on a Topcount (Packard Instrument). Data analysis was carried out by using Prism and the Ki was determined by using the Cheng-Prusoff equation (Cheng & Prusoff (1973) Biochem. Pharmacol. 22, 3099-3108).
RECOMBINANT RECEPTOR: Human CL receptor (Genbank accession number L76380) was subcloned into the expression vector pIREShyg2 (BD Biosciences Clontech) as a 5′NheI and 3′ PmeI fragment. Human RAMP1 (Genbank accession number AJ001014) was subcloned into the expression vector pIRESpuro2 (BD Biosciences Clontech) as a 5′NheI and 3′NotI fragment. HEK 293 cells (human embryonic kidney cells; ATCC #CRL-1573) were cultured in DMEM with 4.5 g/L glucose, 1 mM sodium pyruvate and 2 mM glutamine supplemented with 10% fetal bovine serum […], 100 units/mL penicillin and 100 μg/mL streptomycin, and maintained at 37° C. and 95% humidity. Cells were subcultured by treatment with 0.25% trypsin with 0.1% EDTA in HBSS. Stable cell line generation was accomplished by co-transfecting 10 μg of DNA with 30 μg Lipofectamine 2000 (Invitrogen) in 75 cm^2 flasks. CL receptor and RAMP1 expression constructs were co-transfected in equal amounts. Twenty-four hours after transfection the cells were diluted and selective medium (growth medium+300 μg/mL hygromycin and 1 μg/mL puromycin) was added the following day. A clonal cell line was generated by single cell deposition utilizing a FACS Vantage SE (Becton Dickinson). Growth medium was adjusted to 150 μg/mL hygromycin and 0.5 μg/mL puromycin for cell propagation.
RECOMBINANT RECEPTOR BINDING ASSAY: Cells expressing recombinant human CL receptor/RAMP1 were washed with PBS and harvested in harvest buffer containing 50 mM HEPES, 1 mM EDTA and Complete protease inhibitors (Roche). The cell suspension was disrupted with a laboratory homogenizer and centrifuged at 48,000 g to isolate membranes. The pellets were resuspended in harvest buffer plus 250 mM sucrose and stored at −70° C. For binding assays, 20 μg of membranes were incubated in 1 ml binding buffer (10 mM HEPES, pH 7.4, 5 mM MgCl2, and 0.2% BSA) for 3 hours at room temperature containing 10 pM ^125I-hCGRP (GE Healthcare) and antagonist. The assay was terminated by filtration through 96-well GFB glass fiber filter plates (PerkinElmer) that had been blocked with 0.05% polyethyleneimine. The filters were washed 3 times with ice-cold assay buffer (10 mM HEPES, pH 7.4 and 5 mM MgCl2). Scintillation fluid was added and the plates were counted on a Topcount (Packard). Non-specific binding was determined and the data analysis was carried out with the apparent dissociation constant (Ki) determined by using a non-linear least squares fitting the bound CPM data to the equation below:
[formula] Where Y is observed CPM bound, Ymax is total bound counts, Ymin is non specific bound counts, (Ymax−Ymin) is specific bound counts, % Imax is the maximum percent inhibition, % I min is the minimum percent inhibition, radiolabel is the probe, and the Kd is the apparent dissociation constant for the radioligand for the receptor as determined by Hot saturation experiments.
For orientation: Ki means a dissociation constant, usually derived from enzyme kinetics or from competition with a known ligand. Regarding `C[C@@H](c1cc(F)cc(F)c1)N(Cc1cnc2cc3c(cc2c1)C[C@@]1(C3)C(=O)Nc2ncccc21)C(=O)[C@](C)(OCc1ccccc1)C(F)(F)F`, the Ki was determined as 0.45 nM.

In turn, `O=C(C1CCOCC1)N(Cc1cc(Cl)cc(Cl)c1)Cc1cnc2cc3c(cc2c1)C[C@@]1(C3)C(=O)Nc2ncccc21` returned a Ki of 4.6 nM.

Consider `O=C(C1CCOCC1)N(Cc1cnc2cc3c(cc2c1)C[C@@]1(C3)C(=O)Nc2ncccc21)[C@@H]1CCC[C@H]1OCc1ccccc1`, for which the Ki was determined as 0.41 nM.

Take `O=C(C1CCOCC1)N(Cc1cnc2cc3c(cc2c1)C[C@@]1(C3)C(=O)Nc2ncccc21)C1CCCC1c1ccccc1` (single isomer, unassigned) [21]: the Ki was 0.12 nM. Against the preceding molecule, the Ki is about 3.4-fold lower.

`CC(=O)OC(C)(C)C(=O)N(Cc1ccc2nc3c(cc2c1)C[C@@]1(C3)C(=O)Nc2ncccc21)[C@@H]1CCc2ccccc21` registered a Ki of 0.092 nM.

Regarding `O=C(C1CCCCO1)N(Cc1cccc(F)c1)Cc1cnc2cc3c(cc2c1)C[C@@]1(C3)C(=O)Nc2ncccc21` (stereo partly drawn), the inhibition constant (Ki) worked out at 1.5 nM.

With `CSCCC(=O)N(Cc1cccc(F)c1)Cc1cnc2cc3c(cc2c1)C[C@@]1(C3)C(=O)Nc2ncccc21`, the Ki was 1.6 nM.

As to `CCOC(=O)CC(=O)N(Cc1cccc(F)c1)Cc1cnc2cc3c(cc2c1)C[C@@]1(C3)C(=O)Nc2ncccc21`, the Ki was found to be 1.2 nM. The Ki values of the last two molecules are within 1.5-fold of each other.

As to `CC(C)(C)OC(=O)N1CC(c2ccccc2)C(N(Cc2cnc3cc4c(cc3c2)C[C@@]2(C4)C(=O)Nc3ncccc32)C(=O)C2CCOCC2)C1` (stereo partly drawn), the Ki is 54 nM.

`CC(C)(C)C(=O)N(Cc1cnc2cc3c(cc2c1)C[C@@]1(C3)C(=O)Nc2ncccc21)C1CCOCC1` displayed an inhibitory constant (Ki) of 6 nM.

Molecule `C[C@H](c1cccc(Cl)c1)N(Cc1cnc2cc3c(cc2c1)C[C@@]1(C3)C(=O)Nc2ncccc21)C(=O)C1CCOCC1` came in with a Ki of 0.078 nM.

Molecule `O=C(C1CCOCC1)N(Cc1cnc2cc3c(cc2c1)C[C@@]1(C3)C(=O)Nc2ncccc21)C1CCCC1c1ccccc1` (single isomer, unassigned) [22] yielded a Ki of 0.098 nM. The Ki values of the last two molecules are within 1.5-fold of each other.

Regarding `O=C(C1CCOCC1)N(Cc1cnc2cc3c(cc2c1)C[C@@]1(C3)C(=O)Nc2ncccc21)C1CNCC1c1ccccc1` (stereo partly drawn), the Ki was found to be 4.8 nM.

`CN(C)CC(=O)N(Cc1cccc(F)c1)Cc1cnc2cc3c(cc2c1)C[C@@]1(C3)C(=O)Nc2ncccc21` gave a Ki of 10 nM.

For `CC(=O)OC(C)(C)C(=O)N(Cc1ccc2nc3c(cc2c1)CC1(C3)C(=O)Nc2ncccc21)[C@@H]1CCc2ccccc21` (stereo partly drawn), the Ki was found to be 0.075 nM. Compared with the last molecule, the Ki is about 130-fold lower.
